Chains of the proteins cited; added tags and fusions are not shown. Lines headed by an entry give the natural chain unless they say otherwise; changes in a name come on top.
UniProt P28221: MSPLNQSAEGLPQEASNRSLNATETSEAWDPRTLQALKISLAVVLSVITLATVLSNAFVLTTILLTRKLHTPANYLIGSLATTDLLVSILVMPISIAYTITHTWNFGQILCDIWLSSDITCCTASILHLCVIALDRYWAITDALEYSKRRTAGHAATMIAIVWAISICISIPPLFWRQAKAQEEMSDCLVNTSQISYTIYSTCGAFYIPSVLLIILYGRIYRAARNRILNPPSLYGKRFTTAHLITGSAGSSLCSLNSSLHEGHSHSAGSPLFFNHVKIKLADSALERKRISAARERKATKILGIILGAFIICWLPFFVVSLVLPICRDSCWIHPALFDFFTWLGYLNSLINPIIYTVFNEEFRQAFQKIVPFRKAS
UniProt P08913, whole entry: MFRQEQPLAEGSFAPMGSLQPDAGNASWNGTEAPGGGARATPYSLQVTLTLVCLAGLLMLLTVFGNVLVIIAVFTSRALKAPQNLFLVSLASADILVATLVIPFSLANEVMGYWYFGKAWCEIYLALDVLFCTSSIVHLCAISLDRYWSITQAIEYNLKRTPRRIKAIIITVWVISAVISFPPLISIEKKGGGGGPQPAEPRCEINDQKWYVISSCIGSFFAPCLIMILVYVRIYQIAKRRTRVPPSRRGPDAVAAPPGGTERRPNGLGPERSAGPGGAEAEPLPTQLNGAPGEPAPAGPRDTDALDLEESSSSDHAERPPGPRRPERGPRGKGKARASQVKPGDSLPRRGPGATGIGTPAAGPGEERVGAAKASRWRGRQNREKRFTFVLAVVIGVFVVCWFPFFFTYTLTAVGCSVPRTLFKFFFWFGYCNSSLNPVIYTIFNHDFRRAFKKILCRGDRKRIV

In BindingDB's records for doi:10.1016/s0024-3205(00)00911-5 (Mayo Foundation, 2000):

Columns and labels:
[1] = biological target: 5-hydroxytryptamine receptor 1D (Homo sapiens, UniProt P28221)
[2] = biological target: Alpha-2A adrenergic receptor (Homo sapiens, UniProt P08913)

| Structure (SMILES) | Ki [1] | Ki [2] |
| --- | --- | --- |
| OCCOCCN1CCN(C2=Nc3ccccc3Sc3ccccc32)CC1 [2-[2-(4-dibenzo[b,f][1,4]thiazepin-11-ylpiperazin-1-yl)ethoxy]ethanol] | 0.56 µM |  |
| O=C1NCCN1CCN1CCC(c2cn(-c3ccc(F)cc3)c3ccc(Cl)cc23)CC1 [1-[2-[4-[5-chloro-1-(4-fluorophenyl)-indol-3-yl]-1-piperidyl]ethyl]imidazolidin-2-one] |  | 0.19 µM |
| O=C1Cc2cc(CCN3CCN(c4nsc5ccccc45)CC3)c(Cl)cc2N1 [5-[2-(4-Benzo[d]isothiazol-3-yl-piperazin-1-yl)-ethyl]-6-chloro-1,3-dihydro-indol-2-one] |  | 0.154 µM |
